# Binding of CDR-mutated scFvs to a peptide of the spike HR2 region

The target is the same throughout: PDVDLGDISGINAS, from the HR2 region of SARS-CoV-2 spike.

Ab-91 is the parent antibody, in scFv form: VL, then the linker GGGGSGGGGSGGGGS, then VH. The light chain is unchanged in all variants.
VL: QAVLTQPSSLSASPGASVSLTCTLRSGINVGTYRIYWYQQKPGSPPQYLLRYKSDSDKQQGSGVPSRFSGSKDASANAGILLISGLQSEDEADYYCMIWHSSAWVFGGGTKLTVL
VH: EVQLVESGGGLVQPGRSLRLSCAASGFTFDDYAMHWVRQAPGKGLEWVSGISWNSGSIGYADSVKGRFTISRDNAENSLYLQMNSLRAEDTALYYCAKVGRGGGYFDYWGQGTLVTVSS

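Library AAYL51 holds single substitutions and randomly drawn double and triple substitutions in the CDRs. In AlphaSeq, yeast of one mating type display the scFv and yeast of the other type display the target. Mating (16 h, 30 °C) was followed by selection of diploids and sequencing of their barcodes. Each replicate has its own calibration line, from reference interactions of the BCL2 family. There are three technical replicates.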

Variants are written as CDR1, CDR2 and CDR3 of the heavy chain (limits as in the source). Parent: GFTFDDYAMH, GISWNSGSIGYADSVK, VGRGGGYFDY.
Numbers give log10(Kd / nM), so 0 is 1 nM and 3 is 1 µM. Smaller is tighter.
Replicates are averaged; those with no signal do not enter the mean.
"nd" means that the variant was in the library but no mating with the target was seen in that replicate; the authors take this as a sign of poor binding, and no number exists.
Empty control strains, which show no peptide, gave a signal in 21% of pairings with library AAYL51; the median was 4.54 and 95% of these signals were weaker than 3.26. No background was subtracted. For each scFv, signals with the empty controls are counted beside the result, with their mean in brackets.
In this assay the parent's reference entry averaged 1.86; its copy inside this library read 0.88.

CDR-H1,CDR-H2,CDR-H3,"log10 Kd, replicates","mean, log10 nM",empty controls
GFTIDDYAMH,GISWNSQSIGYADSVK,TGRGGGYFDY,4.14 4.11 3.74,4.00,7 of 9 (4.90)
GFTFDDYAMH,GISWNSCSIGYADSVK,VGRPGGFFDY,nd nd nd,nd,0 of 9
GFTFDDYAMH,GISWNSGSIGYADSVK,VWRGWGYFDY,0.53 0.60 0.14,0.42,0 of 9
GFTFDDYAMH,GISWNSHSIGYADSVK,VGRGGGYFDY,2.03 2.02 1.92,1.99,3 of 9 (5.74)
NFTYDSYAMH,GISWNSGSIGYADSVK,VGRGGGYFDY,nd nd nd,nd,6 of 9 (4.62)
GFTFDHYAMH,VISWNSGSIGYADSVK,VGRGGIYFDY,5.18 nd nd,5.18,2 of 9 (4.74)
GFTFDDYAMH,GISWNSGSIGYADSGK,VGRGGGYFDK,2.19 2.45 2.27,2.30,3 of 9 (4.26)
GFTHDDYAMH,GIYWNTGSIGYADSVK,VGRGGGYFDY,nd nd nd,nd,1 of 9 (3.22)
GFMFHDYAMH,GISMNSGSIGYADSVK,VGRGGGYFDY,1.03 1.12 0.56,0.91,1 of 9 (4.29)
GFTFDDYHMH,GISYNSGSIEYADSVK,VGRGGGYFDY,4.88 4.59 5.45,4.97,4 of 9 (5.57)
GFTFDDYAMH,GISWNSGSIHMADSVK,VGQGGGYFDY,nd 5.47 nd,5.47,0 of 9
GFTMDSYAMH,GISWNSGSIGYAWSVK,VGRGGGYFDY,2.97 3.00 2.83,2.93,6 of 9 (4.67)
GHKFDDYASH,GISWNSGSIGYADSVK,VGRGGGYFDY,5.51 nd nd,5.51,1 of 9 (3.95)
GFTFKDYALH,GVSWNSGSIGYADSVK,VGRGGGYFDY,4.54 4.48 3.40,4.14,4 of 9 (4.50)
GFTFDDYTMT,GISWNSGSIGYADSVK,VGRGGSYFDY,nd nd nd,nd,3 of 9 (4.64)
GTTFDWYAMH,GISWNSGSIDYADSVK,VGRGGGYFDY,nd nd nd,nd,0 of 9
GTTFDDYAMH,GISWNSGSIGYAHSVK,VGRGGGYFDY,3.91 3.58 nd,3.74,0 of 9
GFTFDDYAMH,GILWNSGSIGYADSVK,VGRGGGYKDY,nd 4.44 nd,4.44,1 of 9 (5.06)
GFTWDDCAMH,GISWNSGSIGYADSVK,VGRYGGYFDY,2.71 2.55 4.03,3.10,1 of 9 (4.70)
GFTFDDSAMF,GISWNSGSIGYADSVK,VGRGGGYFDS,nd nd nd,nd,0 of 9
GFTFDDYAMH,GISWNSGSPGRADSDK,VGRGGGYFDY,nd nd nd,nd,3 of 9 (4.28)
GFTFDDYAMH,GYSWNSGSLGYADSVK,VGRGGHYFDY,nd nd nd,nd,2 of 9 (5.11)
GFWFDDYAMH,GISWNSGSIGYADSVK,VGRGGGYFDG,1.07 1.09 0.54,0.90,1 of 9 (4.00)
GFTFDDMAMH,GDSWNSGSIGYMDSVK,VGRGGGYFDY,4.22 nd 4.95,4.59,7 of 9 (4.73)
GFTFDDYAMH,GISWNSDSIGYADSVK,VGRGGGYFDY,nd nd nd,nd,1 of 9 (4.23)
GFTFFDYAMH,GISGNSGSIGYGDSVK,VGRGGGYFDY,nd nd nd,nd,1 of 9 (4.33)
GFTFDDYAMH,SISSNSGSIGYADTVK,VGRGGGYFDY,4.25 4.61 5.49,4.78,2 of 9 (4.62)
GFTFDRYAMG,GISWNSGSIGYKDSVK,VGRGGGYFDY,4.12 nd 5.31,4.72,4 of 9 (3.78)
GFTFDDYAMH,YISWNSGSIGYADSTK,VMRGGGYFDY,nd nd nd,nd,2 of 9 (4.22)
GFTFDDYAMH,GICWNSGSIGYADSVK,VGRGGEEFDY,nd nd nd,nd,1 of 9 (3.70)
GFTGDDYVMH,GISWNEGSIGYADSVK,VGRGGGYFDY,nd nd nd,nd,1 of 9 (3.41)
GFTFDDYAMH,GISVNSGSIGYADSVK,VGEGGCYFDY,nd nd nd,nd,0 of 9
GFTFDDYAMH,GISWNSGSIGCADSVI,VGRGGGYQDY,nd nd nd,nd,2 of 9 (4.39)
GFTFDDYPGH,GISWPSGSIGYADSVK,VGRGGGYFDY,4.08 4.11 4.07,4.09,1 of 9 (4.65)

Extract of 3 entries:

| CDR-H1 | CDR-H2 | CDR-H3 | log10 Kd, replicates | mean, log10 nM | empty controls |
|---|---|---|---|---|---|
| GFTFDDYAMH | GISWNSDSIGYADSVK | VGRGGGYFDY | nd nd nd | nd | 1 of 9 (4.23) |
| GFTFDDYTMT | GISWNSGSIGYADSVK | VGRGGSYFDY | nd nd nd | nd | 3 of 9 (4.64) |
| GFTFDDYAMH | GISWNSCSIGYADSVK | VGRPGGFFDY | nd nd nd | nd | 0 of 9 |

Data: MIT Lincoln Laboratory AlphaSeq set, Engelhart et al. 2022, doi:10.1038/s41597-022-01779-4, as distributed in FLAb.